Reference: ChEMBL document CHEMBL5365433 (J Med Chem, 2023)

What was measured:
[1] = Selectivity ratio of IC50 for inhibition of PI3Kbeta (unknown origin) using PIP2:PS as substrate in presence of ATP to IC50 for inhibition of PI3Kdelta (unknown origin) using PIP2:PS as substrate in presence of ATP
[2] = Selectivity ratio of IC50 for inhibition of PI3Kgamma (unknown origin) using PIP2:PS as substrate in presence of ATP to IC50 for inhibition of PI3Kdelta (unknown origin) using PIP2:PS as substrate in presence of ATP
[3] = Selectivity ratio of IC50 for inhibition of PI3Kalpha (unknown origin) using PIP2:PS as substrate in presence of ATP to IC50 for inhibition of PI3Kdelta (unknown origin) using PIP2:PS as substrate in presence of ATP

SMILES | Ratio IC50 [1] | Ratio IC50 [2] | Ratio IC50 [3]
COc1ccc(-c2nn([C@@H](C)c3nn(-c4cccnc4)c4cc(Cl)ccc34)c3ncnc(N)c23)cc1F | 2970 | 2090 | 132
CC(c1nn(-c2cccnc2)c2cc(Cl)ccc12)n1nc(-c2ccc3c(c2)OCCO3)c2c(N)ncnc21 (stereo not drawn) | 42 | 574 | 503
COc1ccc(-c2nn(C(C)c3nn(-c4cccnc4)c4cc(Cl)ccc34)c3ncnc(N)c23)cc1F (stereo not drawn) | 1950 | > 6250 | 5200
COc1ccc(-c2nn(C(C)c3nn(-c4cccnc4)c4cc(Cl)ccc34)c3ncnc(N)c23)cc1 (stereo not drawn) | 2050 | 1390 | 931
COc1ccc(-c2nn([C@H](C)c3nn(-c4cccnc4)c4cc(Cl)ccc34)c3ncnc(N)c23)cc1F | > 87 | > 87 | > 87
CC(c1nn(-c2cccnc2)c2cc(Cl)ccc12)n1nc(-c2ccc(O)c(F)c2)c2c(N)ncnc21 (stereo not drawn) | 878 | 562 | 616
